According to published antibiotic growth screens (doi:10.1038/s41589-023-01349-8):
The other results are listed elsewhere or left out.

system: A. baumannii ATCC 17978; assay: relative growth (fraction of control); higher = less inhibition; details: 50 µM

| Compound | relative growth |
| --- | --- |
| COC(=O)CCCCCNc1n[nH]c(=O)[nH]c1=O | 0.959 |
| Fc1ccc(-c2n[nH]c(=S)o2)cc1 | 1.12 |
| COc1ccccc1-c1ccc2c(c1)O[C@H](CN(C)S(=O)(=O)c1ccccc1)[C@H](C)CN([C@H](C)CO)S2(=O)=O | 1.17 |
| COc1c(C)cnc2c1c(=O)n(CC#N)c(=O)n2C | 0.896 |
| COCC#Cc1ccc2c(c1)O[C@H](CN(C)C(=O)C1CCCCC1)[C@H](C)CN([C@H](C)CO)S2(=O)=O | 1.09 |
| COc1cc(C(C)=O)cc(OC)c1O | 1.02 |
| CC(O)C(=O)[O-].[NH4+] (stereo not drawn) | 0.802 |
| C[C@@H]1CN([C@H](C)CO)C(=O)CCCn2nncc2CO[C@H]1CN(C)C(=O)Nc1ccc(N2CCCCC2)cc1 | 0.914 |
| C[C@H]1COC(=O)[C@@H](Cc2ccc(F)cc2)CC=CC[C@@H](CC(=O)N(CCO)Cc2ccccc2)C(=O)N1 | 0.772 |
| CO[C@@]1(NC(=O)Cc2cccs2)C(=O)N2C(C(=O)[O-])=C(COC(N)=O)CS[C@@H]21.[Na+] | 0.869 |
| O=C([O-])C(O)[C@H](O)[C@H](O)[C@H](O)[C@H](O)CO.O=C([O-])C(O)[C@H](O)[C@H](O)[C@H](O)[C@H](O)CO.[Ca+2] (stereo partly drawn) | 1.25 |
| C[C@H](CO)N1C[C@H](C)[C@@H](CN(C)C(=O)NC2CCCC2)Oc2cc(-c3cncnc3)ccc2S1(=O)=O | 1 |
| O=C(CCCCC(=O)Nc1c(I)cc(I)c(C(=O)O)c1I)Nc1c(I)cc(I)c(C(=O)O)c1I | 1.23 |
| COc1nonc1NC(C)=O | 0.968 |
| Cn1ncc2c(N3CCCC3)ncnc21 | 0.965 |
| COc1cccc(NC(=O)N2C[C@@H](O)COC[C@H]3O[C@H](CC(=O)NCc4ccccc4F)CC[C@@H]32)c1 | 0.968 |
| CC(=O)N(C)c1nc(N)n(-c2ccccc2)n1 | 0.901 |
| CCN1OCN(c2nc(N(C)C)nc(N(C)C)n2)C1=N | 0.955 |
| Cl.Nc1ncnc(Nc2ccc(Cl)cc2)n1 | 1.14 |
| CC(C)NC(=O)N(C)C[C@@H]1Oc2cc(C#Cc3ccc(F)cc3)ccc2S(=O)(=O)N([C@H](C)CO)C[C@H]1C | 0.867 |
| Cn1c(=O)c2[nH]c(-[n+]3ccc(C(=O)O)cc3)nc2n(C)c1=O | 1.02 |

| Compound | relative growth |
| --- | --- |
| CN(C)S(=O)(=O)N(C)c1ccccc1 | 1.15 |
| O=C(C[C@H]1CC[C@H]2[C@@H](COC[C@@H](O)CN2C(=O)Nc2ccc(Cl)cc2)O1)NCCc1ccncc1 | 0.987 |
| CC(C)[C@H](N)C(=O)OCC(CO)OCn1cnc2c(=O)[nH]c(N)nc21.Cl (stereo partly drawn) | 0.889 |
| CCOc1ccc2ccccc2c1C(=O)N[C@@H]1C(=O)N2C(C(=O)[O-])C(C)(C)S[C@H]12.[Na+] (stereo partly drawn) | 0.418 |
| COC(=O)C1=C2CC[C@H](COC(=O)NCCCCCC(=O)NO)NC(=O)N[C@@H](Cc3ccccc3)c3cn(nn3)C[C@@H](Cc3ccccc3)NC(=O)c3oc(c(C(=O)OC)c3C(=O)OC)CC[C@H](COC(=O)NCCCCCC(=O)NO)NC(=O)N[C@@H](Cc3ccccc3)c3cn(nn3)C[C@@H](Cc3ccccc3)NC(=O)C(=C1C(=O)OC)O2 | 1 |
| O=C(C[C@@H]1CC[C@@H](NS(=O)(=O)c2ccccc2F)[C@H](CO)O1)NCCCN1CCOCC1 | 0.969 |
| Cl.Cl.NCCSSCCN | 1.04 |
| CC(C)C[C@@H]1NC(=O)[C@@H]2C[C@H](C(=O)NCCCCCNC(=O)CS)[C@H](c3ccc(O)cc3)N2C1=O | 0.923 |
| COc1cc2c(cc1OC)Cc1cc(OC)c(OC)cc1Cc1cc(OC)c(OC)cc1C2 | 0.974 |
| CC(C)=CCC/C(C)=C\CC1=C(C)C(=O)c2ccccc2C1=O | 1.05 |
| O=C(N[C@H]1C=C[C@H](CC(=O)N2CCOCC2)O[C@H]1CO)c1ccccn1 | 0.899 |
| COCCc1ccc(OCC(O)CNC(C)C)cc1.O=C(O)C(O)C(O)C(=O)O (stereo not drawn) | 1.05 |
| O=C(C[C@@H]1CC[C@@H]2[C@H](COC[C@H](O)CN2C(=O)Nc2ccc3c(c2)OCO3)O1)N1CCN(c2ccccc2)CC1 | 1.08 |
| NCC[C@H]1CC[C@@H](NC(=O)C2CC2)[C@@H](CO)O1 | 1.01 |
| COC1C=CC23c4cc5c(cc4CN(C[C@H]2O)[C@@H]3C1)OCO5 (stereo partly drawn) | 1.13 |
| CC(=O)OCCn1c(=O)[nH]c(=O)c2nsnc21 | 0.908 |
| COCC#Cc1cnc2c(c1)C(=O)N([C@H](C)CO)C[C@H](C)[C@@H](CN(C)S(=O)(=O)c1cn(C)cn1)O2 | 0.981 |
| COCC#Cc1ccc2c(c1)O[C@H](CN(C)C(=O)COC)[C@H](C)CN([C@@H](C)CO)S2(=O)=O | 1.05 |
| O=C(C[C@@H]1CC[C@@H]2[C@H](COC[C@H](O)CN2C(=O)c2cnccn2)O1)NCc1ccc(Oc2ccccc2)cc1 | 0.827 |
| CC(COc1ccccc1)N(CCCl)Cc1ccccc1.Cl (stereo not drawn) | 0.927 |
| Cc1oc(=O)oc1CN1CCN(c2cc3c(cc2F)c(=O)c(C(=O)O)c2n3C(C)S2)CC1 (stereo not drawn) | 0.144 |

| Compound | relative growth |
| --- | --- |
| O=C(O)CCN1C(=O)[C@@H]2[C@@H](C1=O)[C@@H]1C=C[C@@H]2C1 | 0.91 |
| COCC(=O)Nc1ccc2c(c1)OC[C@@H](C)N(Cc1cccc(F)c1)C[C@@H](C)[C@@H](OC)CN(C)C2=O | 1.1 |
| C[C@H](CO)N1C[C@H](C)[C@H](CN(C)Cc2cncnc2)Oc2cc(-c3ccccc3F)ccc2S1(=O)=O | 0.914 |
| C/C=C\C1=C(C(=O)O)N2C(=O)C(NC(=O)C(N)c3ccc(O)cc3)C2SC1 (stereo not drawn) | 1.08 |
| CCC(CC)C(=O)N1c2ccccc2Sc2ccccc21 | 0.737 |
| O=C(C[C@H]1C=C[C@H](NC(=O)C2CC2)[C@H](CO)O1)NCCCN1CCOCC1 | 0.94 |
| NCC[C@H]1CC[C@H](NC(=O)C2CC2)[C@@H](CO)O1 | 0.998 |
| CC(=O)OCC(=O)[C@@]12OC3(CCCC3)O[C@@H]1C[C@H]1[C@@H]3CCC4=CC(=O)C=C[C@]4(C)[C@@]3(F)[C@@H](O)C[C@@]12C | 1.09 |
| Cc1ccc(S(=O)(=O)N[C@H]2CC[C@H](CCNC(=O)CN3CCOCC3)O[C@@H]2CO)cc1 | 1.03 |
| O=C(C[C@H]1C[C@H]2c3cc(NS(=O)(=O)c4ccc(F)cc4)ccc3O[C@H]2[C@@H](CO)O1)NC1CCCC1 | 1.02 |
| Clc1ccc(CO/N=C(\Cn2ccnc2)c2ccc(Cl)cc2Cl)c(Cl)c1.O=[N+]([O-])O | 0.922 |
| COc1ccccc1OC[C@@H](O)CO | 1.01 |
| CC(C)C[N+]1(C)Cc2ccccc2C1 | 0.939 |
| C[C@H]1CN([C@@H](C)CO)S(=O)(=O)c2ccc(C#Cc3ccccc3F)cc2O[C@H]1CN(C)CC1CC1 | 0.792 |
| CCCNCC(O)COc1ccccc1C(=O)CCc1ccccc1.Cl (stereo not drawn) | 0.884 |
| CC(=O)NCCCC[C@@H]1NC(=O)[C@H]2C[C@@H](C(=O)NCCCC[N+](C)(C)C)[C@@H](c3cccc(OCCO)c3)N2C1=O | 0.938 |
| CCn1cc(C(=O)O)c(=O)c2cc(F)c(N3CCN(C)CC3)cc21.CS(=O)(=O)O | 0.141 |
| Cl.N#Cc1ccc2[nH]cc(CCCCN3CCN(c4ccc5oc(C(N)=O)cc5c4)CC3)c2c1 | 0.914 |
| Nc1nc(=O)[nH]cc1Br | 0.903 |
| CC(C)CNC(=O)[C@@H]1c2ccccc2C(=O)N(Cc2ccccc2C(F)(F)F)[C@H]1c1ccc(CO)cc1 | 0.857 |
| O=C(C[C@H]1C=C[C@@H](NC(=O)CN2CCOCC2)[C@@H](CO)O1)NCc1cccc(F)c1 | 0.904 |

| Compound | relative growth |
| --- | --- |
| COCCOC(=O)N1C(=O)[C@@]2(c3cc(C#CC4=CCCCC4)ccc31)[C@H](c1ccccc1OCCO)N1[C@H](c3ccccc3)[C@H](c3ccccc3)OC(=O)[C@H]1[C@@H]2C(=O)N1CCCCCCC1 | 1.18 |
| CCOC(=O)CC1=NNC(=N)SC1 | 0.96 |
| O=C(NCC[C@@H]1CC[C@H](NS(=O)(=O)c2cccc(F)c2)[C@@H](CO)O1)C1CC1 | 1.08 |
| Cc1ccc(S[C@]2(C(=O)O)CC(=O)N(Cc3ccccc3C(F)(F)F)[C@@H]2c2ccc(CO)cc2)cc1 | 0.883 |
| Cc1nc(CSCc2ccc(Cl)cc2Cl)cs1 | 0.946 |
| O=C(C[C@@H]1C[C@@H]2c3cc(NS(=O)(=O)c4ccc(F)cc4)ccc3O[C@@H]2[C@@H](CO)O1)NCc1ccccc1 | 0.866 |
| CO[C@H]1CN(C)C(=O)c2cc(NS(C)(=O)=O)ccc2OC[C@@H](C)N(C(=O)c2ccc3c(c2)OCO3)C[C@@H]1C | 0.867 |
| C[C@@H]1CN([C@@H](C)CO)C(=O)c2cc(C#Cc3ccccc3F)cnc2O[C@H]1CN(C)S(=O)(=O)c1ccccc1 | 0.97 |
| NCc1ccccc1 | 0.854 |
| COc1c(O)cc(O)cc1O | 0.918 |
| Cc1ccc(S(=O)(=O)N[C@@H](Cc2ccccc2)C(=O)NCCCn2cc(CCC(=O)NO)nn2)cc1 | 0.955 |
| CN1CCN(C(=O)C[C@@H]2CC[C@@H](NC(=O)Cc3ccccn3)[C@@H](CO)O2)CC1 | 0.934 |
| COCCOC(=O)N1C(=O)[C@@]2(c3cc(C#CC4=CCCCC4)ccc31)[C@H](C(=O)N1CCN(c3ncccn3)CC1)[C@H]1C(=O)O[C@H](c3ccccc3)[C@H](c3ccccc3)N1[C@@H]2c1ccc(O)cc1 | 0.97 |
| COc1ccc(NC(=O)N[C@H]2CC[C@@H](CCNC(=O)CN3CCOCC3)O[C@H]2CO)cc1 | 1.02 |
| O=C(CCCCCC(=O)N/N=C/[C@@H](O)[C@H](O)[C@H](O)CO)NO | 0.936 |
| CCc1cn([C@H]2C[C@@H](O)[C@@H](CO)O2)c(=O)[nH]c1=O | 1.16 |
| CN(C)CCCN1c2ccccc2Sc2ccccc21.Cl | 0.96 |
| COc1cccc(C#Cc2ccc3c(c2)O[C@@H](CN(C)C(=O)CN2CCOCC2)[C@@H](C)CN([C@@H](C)CO)S3(=O)=O)c1 | 0.64 |
| CC(C)(C)[C@H]1COC(=O)[C@@H](NC(=O)OCC2c3ccccc3-c3ccccc32)CC=CC[C@H](CC(=O)N(CCO)Cc2ccccc2)C(=O)N1 | 1.16 |
| S=c1[nH]nc(C2CCCCC2)[nH]1 | 1.07 |
